Reference: PubChem BioAssay AID434978 (Johns Hopkins Ion Channel Center, 2010)
This is a selection; strong and weak results do not stand in their true shares. Activity calls are given as the source filed them.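 The calls were made as follows: active = primary screen active whose calcium signal fell more than 3 SD beyond the full-serotonin control mean in both duplicate plates; inactive = the rest.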

Experiment: serotonin-gated TRPC4 signal block – cell-based, second counter screen, HEK293 TRPC4/5HT1a, Fluo-4, counter-screen for TRPC4 inhibitor project, confirmation (AID 434978)
Conditions: Fluo-4 calcium flux, at 10 µM, stronger effect = higher value, serotonin added to trigger calcium flux

| SMILES | inhibition |
| --- | --- |
| CN(C)C1(CNC(=O)c2ccc(Cl)c(S(N)(=O)=O)c2)CCCCC1 | inactive: 0% |
